# Binding of CDR-mutated scFvs to a peptide of the spike HR2 region

All variants were tested on one target, the spike HR2 peptide PDVDLGDISGINAS (SARS-CoV-2).

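The library (AAYL51) carries one to three amino acid substitutions per variant, with no insertions or deletions. The assay is AlphaSeq: two haploid yeast populations carry antibody and antigen on their surface. Mating (16 h, 30 °C) was followed by selection of diploids and sequencing of their barcodes. A regression on co-assayed BCL2-family reference pairs converts the normalised counts of each replicate to an apparent Kd. The assay was run in three technical replicates.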

Parent scFv Ab-91: VL joined to VH by three GGGGS repeats. Changes lie in the heavy chain CDRs alone.
VL: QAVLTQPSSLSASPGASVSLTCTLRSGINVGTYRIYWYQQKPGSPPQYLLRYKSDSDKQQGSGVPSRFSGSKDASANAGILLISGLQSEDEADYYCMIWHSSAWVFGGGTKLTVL
VH: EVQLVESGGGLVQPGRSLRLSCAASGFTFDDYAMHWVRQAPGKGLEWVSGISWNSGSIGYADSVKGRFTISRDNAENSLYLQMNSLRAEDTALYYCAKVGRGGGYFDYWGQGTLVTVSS

Each variant is given by its three heavy chain CDRs, as the data file delimits them; those of the parent are GFTFDDYAMH, GISWNSGSIGYADSVK, VGRGGGYFDY.
Scale: log10 of Kd in nM, estimated from mating counts; low values are strong binders.
The mean shown is taken over the replicates in which the pair was detected.
"not detected" means that the variant was in the library but no mating with the target was seen in any replicate; the authors take this as a sign of poor binding, and no number exists.
In this assay the parent's reference entry averaged 1.86; its copy inside this library read 0.88.

| CDR-H1 | CDR-H2 | CDR-H3 | mean log10 Kd (nM) | seen in |
|---|---|---|---|---|
| GFTFDDYAMH | GISWNSGSIGYASSVK | VGNGGGYFTY | not detected | 0 of 3 |
| GFTFDDYAMH | GISWNSGSIGYMDSVK | VGRHGGYRDY | 5.46 | 2 of 3 |
| GFTFDDNWMH | GISWNSGSIGYADSVK | VGRGGAYFDY | 4.59 | 3 of 3 |
| GFTFDDYAMH | GISWFSGSIGYADSVK | VGRGGGYPDY | not detected | 0 of 3 |
| GFTFDDYAMH | GHSCNSGSIGYADSVK | IGRGGGYFDY | 5.08 | 3 of 3 |
| KFTFDDYAMH | GISWNSGSIGYATSVK | VARGGGYFDY | not detected | 0 of 3 |
| GFTFDDYAMH | GISWNSGSIGYPDSVK | LGRGGGYFDF | 5.83 | 2 of 3 |
| GWTFDDYAMH | GISWNSGSIGYADSVK | YGRGGGYFDA | 4.95 | 3 of 3 |
| GFTFDDYAMH | GISWNSGSIGYADSVK | VGKGGGWFDY | 3.33 | 2 of 3 |
| GFTFDDYAMH | GISWNSGSIGYADFVK | CGRGGGYFDY | not detected | 0 of 3 |
| GFTFDDYAMW | GISWNSGSIGYADSVM | VGRGGGKFDY | 5.11 | 2 of 3 |
| GFTFDDYAMH | GFSWNSGSIGYADYVK | VGRPGGYFDY | not detected | 0 of 3 |
| GFTFDDYAMH | GISWRSGSIGYADSVK | VGRGHGYFDY | not detected | 0 of 3 |
| GMEFDDYAMH | GISWNSGSIMYADSVK | VGRGGGYFDY | not detected | 0 of 3 |
| GFFFDDYAME | GISWNSGSRGYADSVK | VGRGGGYFDY | not detected | 0 of 3 |
| GFTFDDYAMH | GIGWNSGHIGYADSVK | VGDGGGYFDY | 4.17 | 2 of 3 |
| GFTCDDYAYE | GISWNSGSIGYADSVK | VGRGGGYFDY | 3.74 | 1 of 3 |
| GFTFDDYAMH | GISWNSGSIGYAVSVK | VQRGGGYFFY | 5.65 | 1 of 3 |
| GFTLDDYAMH | TISENSGSIGYADSVK | VGRGGGYFDY | 4.29 | 1 of 3 |
| GFTFDDYANH | GISSNSGSIGYADSVK | VGRGVGYFDY | 3.86 | 1 of 3 |
| GFTFDLYAMM | GISWNFGSIGYADSVK | VGRGGGYFDY | not detected | 0 of 3 |
| GFTFDMYAMH | GISWNSGSICYADSVK | VGRGGHYFDY | not detected | 0 of 3 |
| GFTFDDTAMH | GTSWNSGSIGYADSVK | VGRSGGYFDY | 4.30 | 3 of 3 |
| GHTFDDYAMH | GPSWNSGSIGYADSVK | VGRGGGYFDD | not detected | 0 of 3 |
| GHTFDDYHMH | GISWNSPSIGYADSVK | VGRGGGYFDY | not detected | 0 of 3 |
| GFTFDDYAMH | GIMWNSGSIGYADSVL | VGRGGGDFDY | 4.27 | 2 of 3 |
| GPTFDDYAMH | GIFWNYGSIGYADSVK | VGRGGGYFDY | not detected | 0 of 3 |
| GFTFDDYAMH | GISYNSGSIGYADSVN | QGRGGGYFDY | 4.12 | 3 of 3 |

The remaining entries, values ahead:

| mean log10 Kd (nM) | seen in | CDR-H1 | CDR-H2 | CDR-H3 |
|---|---|---|---|---|
| 4.40 | 2 of 3 | GFTFDDYAMV | GISKNSGSIGYADSVK | VGRRGGYFDY |
| not detected | 0 of 3 | GFTFDDYAMG | GIQWNSGSIGYADSVK | VGRGGGYFKY |
| 5.30 | 3 of 3 | GFTFDDGAMH | GISWNSGSIGYADSVK | VGREGGYFIY |
| not detected | 0 of 3 | GFTFDDQAMH | GTSWNSGSIGYADSVK | VGRAGGYFDY |
| not detected | 0 of 3 | GFTFDDYARH | GISWNSGSIGYADSVK | VGRGKGYFCY |
| 3.07 | 3 of 3 | GFTFDDYAMP | GISWNSGSIGYADSVK | VGRGGGYVCY |
| 5.36 | 1 of 3 | GFTFRDYAMH | GKWWNSGSIGYADSVK | VGRGGGYFDY |
| 3.10 | 2 of 3 | GFTFDDHAMH | GISWNSGSIGYVDSVK | VGRGGGYFDY |
| 3.18 | 3 of 3 | GFCFDDYAMH | GISWNSRSIGYADSCK | VGRGGGYFDY |
| 4.73 | 1 of 3 | GFTFDDYAMH | GISENSGSIGYHDSVK | VGRGGLYFDY |
| 4.04 | 1 of 3 | KFTFDDYAMH | GISWNSGSIGYADSAK | VGRGGGYLDY |
| 4.37 | 1 of 3 | GFTFDDYAMH | EISWNSGSNGYADSVK | VGRGGGYFQY |
| 4.23 | 1 of 3 | GFTFDDYLMH | GISWNSGSIGYAWSVK | VGRGGGYFDL |
| 5.32 | 3 of 3 | GFTFDDYAMH | GISWNSGSIGYADSVK | VMRGLGYFDN |
| not detected | 0 of 3 | GFTFDDYTKH | GISWNSGSGGYADSVK | VGRGGGYFDY |
| 4.90 | 2 of 3 | GFTFDDYAMH | GISWNSPSTGYADSVK | VGRGGGYFDY |
| 4.14 | 1 of 3 | GFTFDDMAMH | GVSWNSGSIGRADSVK | VGRGGGYFDY |
| 3.97 | 1 of 3 | GFTFDDYAMH | GISWNSSSIGYADSVK | VGRGGGYVDY |
| not detected | 0 of 3 | GFTFDDYAMH | GISSNSGSIGYRDSVE | VGRGGGYFDY |
| 4.30 | 1 of 3 | GFIFDDYAMH | GISWNLGSIGYADSVK | VGRGGGYCDY |
| 4.31 | 2 of 3 | GFTFCDYAMR | GISWNSGSIGYADSVK | WGRGGGYFDY |
| not detected | 0 of 3 | GFTFDDYMMH | GIGWNSGSIGYADSVK | VQRGGGYFDY |
| not detected | 0 of 3 | TFTFDDYAMH | GISWNSGSKGYADSVK | VGRGGGYMDY |
| not detected | 0 of 3 | GFTFDDYKMH | GISPNSGSIGYADTVK | VGRGGGYFDY |
| not detected | 0 of 3 | GFTFDDYAKH | GISWESGSIGYADVVK | VGRGGGYFDY |
| 5.93 | 2 of 3 | GFTFDDYTMH | GISWNSGSIGWADSVK | VTRGGGYFDY |
| 2.97 | 3 of 3 | GFTFDDYAMH | GISWNSGSTGYADSVE | VGRGGVYFDY |
| 5.25 | 1 of 3 | GFTFDDYAMH | GISWNSGSIGYADSVK | VGRDGLYFDS |
| 1.35 | 3 of 3 | GFTFDDYAMH | GISWNSGSIGYAPSVK | VGQHGGYFDY |

The first 8 entries again:

| CDR-H1 | CDR-H2 | CDR-H3 | mean log10 Kd (nM) | seen in |
|---|---|---|---|---|
| GFTFDDYAMH | GISWNSGSIGYASSVK | VGNGGGYFTY | not detected | 0 of 3 |
| GFTFDDYAMH | GISWNSGSIGYMDSVK | VGRHGGYRDY | 5.46 | 2 of 3 |
| GFTFDDNWMH | GISWNSGSIGYADSVK | VGRGGAYFDY | 4.59 | 3 of 3 |
| GFTFDDYAMH | GISWFSGSIGYADSVK | VGRGGGYPDY | not detected | 0 of 3 |
| GFTFDDYAMH | GHSCNSGSIGYADSVK | IGRGGGYFDY | 5.08 | 3 of 3 |
| KFTFDDYAMH | GISWNSGSIGYATSVK | VARGGGYFDY | not detected | 0 of 3 |
| GFTFDDYAMH | GISWNSGSIGYPDSVK | LGRGGGYFDF | 5.83 | 2 of 3 |
| GWTFDDYAMH | GISWNSGSIGYADSVK | YGRGGGYFDA | 4.95 | 3 of 3 |

Background: pairings of library AAYL51 with three empty control strains gave a value in 21% of cases (median 4.54, 5th percentile 3.26). Values in that range, when seen in few replicates, are hard to tell from nonspecific mating.

Reference: Engelhart et al. 2022, doi:10.1038/s41597-022-01779-4. File: FLAb, binding data.